Sequences of proteins named here, by UniProt entry; tags and fusion partners are left off.
UniProt P08238, whole entry: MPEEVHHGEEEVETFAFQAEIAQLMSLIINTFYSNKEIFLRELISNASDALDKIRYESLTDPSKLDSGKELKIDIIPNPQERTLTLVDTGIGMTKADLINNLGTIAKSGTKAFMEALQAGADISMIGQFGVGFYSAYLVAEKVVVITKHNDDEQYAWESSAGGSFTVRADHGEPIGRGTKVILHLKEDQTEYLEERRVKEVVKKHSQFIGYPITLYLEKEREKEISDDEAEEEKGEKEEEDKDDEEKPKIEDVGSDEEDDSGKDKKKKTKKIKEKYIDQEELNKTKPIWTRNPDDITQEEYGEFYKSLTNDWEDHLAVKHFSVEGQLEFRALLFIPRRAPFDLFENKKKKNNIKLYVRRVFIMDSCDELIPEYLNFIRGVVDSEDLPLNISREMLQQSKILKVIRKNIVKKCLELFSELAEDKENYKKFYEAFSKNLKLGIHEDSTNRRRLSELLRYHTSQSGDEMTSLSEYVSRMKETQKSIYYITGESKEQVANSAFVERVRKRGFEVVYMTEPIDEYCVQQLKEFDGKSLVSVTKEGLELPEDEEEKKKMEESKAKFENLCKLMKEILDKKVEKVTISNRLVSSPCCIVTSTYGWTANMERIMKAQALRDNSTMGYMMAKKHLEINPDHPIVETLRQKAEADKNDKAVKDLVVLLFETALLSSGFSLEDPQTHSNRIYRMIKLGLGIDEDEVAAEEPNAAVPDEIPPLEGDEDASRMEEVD

In ChEMBL document CHEMBL2412974, “Dimeric and trimeric triazole based molecules as a new class of Hsp90 molecular chaperone inhibitors” (Eur J Med Chem, 2013):

Target: Heat shock protein HSP 90-beta (Homo sapiens, UniProt P08238)
Experiment: Inhibition of human Hsp90 ATPase activity assessed as inhibition of ATP hydrolysis after 60 mins by fluorimetric analysis

inhibition: inactive
Compound: c1ccc2c(Cn3cc(-c4ccc(-c5cn(Cc6cccc7ccccc67)nn5)cc4)nn3)cccc2c1

Calls of active or inactive are those of the source. The calls are words filed in the database; no cut-off is given here.
